Our source for the activity change, negative = inhibition values is PubChem BioAssay AID2017 (National Center for Advancing Translational Sciences (NCATS), 2009).

The list shows a part of the results, in another mix than the full data. Inconclusive results are not listed. Calls of active or inactive are those of the source. Calls follow the shape of the dose curve; as a rule, active = well fitted curve in the direction sought with a large enough effect; inconclusive = small, poorly fitted or top-dose-only effect, or another doubt; inactive = no such curve, though single readings can be large or run the other way.

For the assay, the system named is 4-diphosphocytidyl-2-C-methyl-D-erythritol kinase IspE (bacterial, species not stated). Briefly: Confirmatory Assay for Inhibitors of Human Galactokinase (GALK): CDP-Me assay counterscreen. The following applies: ATP depletion, Kinase-Glo luminescence; at 115 µM (top of the series). The source says: NIH Molecular Libraries Probe Production Centers Network [MLPCN] NIH Chemical Genomics Center [NCGC] MLPCN Grant: R03 MH085689-01 Assay Submitter (PI): Kent Lai (University of Utah School of Medicine, 50 N Mario Capecchi Drive, Salt Lake City, UT 84132) NCGC Assay Overview The GHMP kinase family is a unique class of important enzymes that plays an essential role in many metabolic processes. It contains more than 170 protein members among which are the galactokinase (GALK) and the CMK enzymes. GALK plays a crucial role in galactose processing and is a potential therapeutic target for Classic Galactosemia (OMIM: 230400). CMK is involved for the non-mevalonate synthesis of isoprenoids precursors and natural products like sterols or ubiquinones which are important to many biological functions. Although the sequence identity between GALK and CMK is low, the three-dimensional structures and active sites are highly similar. Therefore to determine the validity and selectivity of an active compound observed in the GALK qHTS screen (AID: 1868), a bioluminescent counter-screen targeting bacterial CMK was developed. In addition, because the mevalonate independent synthesis of isoprenoids are more prevalent in opportunistic pathogens such as bacteria, CMK is a potential novel therapeutic target where selective inhibitors could be used to determine potential antibacterial effects. The CMK (provided by Kent Lai) was assayed using ATP and 4-diphosphocytidyl-2-C-methyl-D-erythritol (CDP-ME; Echelon, cat# I-M052) as substrates. Promega Kinase-Glo Plus (cat# V3774) technology was used to detect the residual ATP following kinetic reaction. Briefly, the Kinase-Glo Plus contains Ultra-Glo [5] luciferase and D-luciferin which generates a bioluminescence signal from the remaining ATP.
NCGC Assay Protocol Summary: Three uL/well of substrate solution (15 uM ATP, 30 uM CDP-ME, 20 mM HEPES pH8.0, 5 mM MgCl2, 40 mM KCl, 1 mM DTT, 0.01% BSA final concentration) was dispensed into 1536-well, assay plates (Greiner, solid white medium-binding plates) with Aurora Discovery BioRAPTR Flying Reagent Dispenser (FRD; Beckton-Dickenson). […] One uL/well enzyme solution (0.25 ug/mL CDP-Me kinase, 20 mM HEPES pH8.0, 5 mM MgCl2, 40 mM KCl, 1 mM DTT, 0.01% BSA final concentration) was then added using the FRD yielding a total kinase reaction volume of 4 uL/ well. After 1 hour of room temperature incubation, 4 uL Kinase-Glo Plus reagent was added for a final assay volume of 8 uL/well. After 1 min, luminescence was detected with the ViewLux plate reader (Perkin Elmer, Waltham, MA) using a 1 sec exposure time and 2x binning settings.
On to `CCc1ccc(S(=O)(=O)/N=C2\C=C(Nc3ccc(C(=O)O)cc3)C(=O)c3ccccc32)cc1`, for which the activity change, negative = inhibition is inactive: -4.34%. Then `O=C(NC1(O)C(=O)c2ccccc2C1=O)c1ccccc1`, with inactive: -16.1%. Then `CCOC(=O)C1=C(C)OC2(O)c3ccccc3C(=O)C12O` (configuration not stated), with inactive: -13.1%.

Turning to `Cc1ccc(C(=O)NC2(O)C(=O)c3ccccc3C2=O)cc1C`, the activity change, negative = inhibition is inactive: -19.5%. Consider `O=C(O)c1ccc(S(=O)(=O)/N=C2\C=C(Nc3ccccc3F)C(=O)c3ccccc32)cc1`, for which the activity change, negative = inhibition was inactive: -13.3%. With `COc1ccc(N=C2S/C(=C\c3ccc(OC(C)C(=O)O)c(OC)c3)C(=O)N2CCc2c[nH]c3ccccc23)cc1` (configuration not stated), the activity change, negative = inhibition was inactive: -3.15%. On to `N=C1/C(=C/c2cccs2)C(=O)N=C2SN=C(SCc3ccccc3)N12`, for which the activity change, negative = inhibition is inactive: -0.471%. Then `O=C1Nc2ccc([N+](=O)[O-])cc2C1=Nc1cccc(CO)c1`, with inactive: -4.72%; and `CN(C)c1cc(Cl)c2nonc2c1N`, with inactive: -19.2%. With `O=[N+]([O-])c1cc([N+](=O)[O-])c2oc(-c3ccccc3)c(Br)c2c1O`, the activity change, negative = inhibition was inactive: -9.68%.

For `Cc1ccccc1NC1=C/C(=N\S(=O)(=O)c2ccc(C(=O)O)cc2)c2ccccc2C1=O`, the activity change, negative = inhibition was inactive: -7.23%.

As for `O=C1C=C(N2CCOCC2)c2ccccc2C1=O`, the activity change, negative = inhibition is inactive: -19.5%.
